This passage reports Activity and fold change (FC) results from ChEMBL document CHEMBL6078710, “Design, synthesis and biological evaluation of new SIRT3 activators for the treatment of triple-negative breast cancer” (Bioorg Med Chem, 2025).

One data set deals with MCF7. Briefly: Cytotoxicity against human MCF7 cells assessed as reduction in cell viability. The data set is classed as toxicity, cell-based.
The target in data set [1] is T1, NAD-dependent protein deacetylase sirtuin-3, mitochondrial (Homo sapiens) (UniProt Q9NTG7).
T1 sequence (whole entry): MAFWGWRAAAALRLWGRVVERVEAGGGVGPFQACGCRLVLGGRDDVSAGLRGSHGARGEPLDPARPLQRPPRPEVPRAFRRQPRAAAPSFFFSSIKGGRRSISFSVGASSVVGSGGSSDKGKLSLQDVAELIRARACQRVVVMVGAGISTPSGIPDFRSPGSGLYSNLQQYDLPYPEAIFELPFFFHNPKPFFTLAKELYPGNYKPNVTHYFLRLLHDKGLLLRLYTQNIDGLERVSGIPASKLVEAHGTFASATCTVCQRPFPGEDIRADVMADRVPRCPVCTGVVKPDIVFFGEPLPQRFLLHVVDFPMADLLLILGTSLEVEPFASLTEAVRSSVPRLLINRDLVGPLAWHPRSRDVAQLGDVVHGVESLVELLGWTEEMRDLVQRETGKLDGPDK
Briefly: Activation of SIRT3 (unknown origin) at 10 uM. Particulars: filed as activator.

For data set [2], the target named is T1, NAD-dependent protein deacetylase sirtuin-3, mitochondrial (Homo sapiens). As to the kind of experiment: Agonist activity at SIRT3 (unknown origin) deacetylation activity assessed as fold change at 50 uM incubated for 30 mins. Particulars: filed as agonist.

For `CCOC(=O)C1=CN(C(=O)c2ccc(OC)c(OC)c2)C=C(C(=O)OCC)C1c1cnc(Cl)c(Cl)c1`, in the data set with MCF7, the Activity entry was “Toxic”.

On to `CCCCCNC(=O)c1c(N)n(Cc2ccc(F)cc2)c2nc3ccccc3nc12`, for which the Activity in data set [1] was determined as 150%.

Regarding `CCOC(=O)C1=CN(C(=O)c2cc(OC)c(OC)c(OC)c2)C=C(C(=O)OCC)C1c1ccc(S(C)(=O)=O)cc1`, the fold change (FC) in data set [2] turned out to be 20.
